Measured values published in ChEMBL document CHEMBL1255405, “Pharmacokinetics of chloroquine and monodesethylchloroquine in pregnancy” (Antimicrob Agents Chemother, 2010).

What was measured:
Type in all cases: ADME, organism-based
Conditions in all cases: in vivo
Homo sapiens [1] = test: Intercompartment clearance in Papua new Guinean women in second or third trimester of pregnancy using pharmacokinetic base model at 450 mg/day, po administered as three divided doses in presence of sulfadoxine-pyrimethamine by HPLC method
Homo sapiens [2] = test: Intercompartment clearance in Papua new Guinean women in second or third trimester of pregnancy using pharmacokinetic final covariate model at 450 mg/day, po administered as three divided doses in presence of sulfadoxine-pyrimethamine by HPLC method
Homo sapiens [3] = test: Clearance in Papua new Guinean women in second or third trimester of pregnancy using pharmacokinetic base model assessed as monodesethychloroquine at 450 mg/day, po administered as three divided doses in presence of sulfadoxine-pyrimethamine by HPLC method
Homo sapiens [4] = test: Clearance in Papua new Guinean women in second or third trimester of pregnancy using pharmacokinetic final covariate model assessed as monodesethychloroquine at 450 mg/day, po administered as three divided doses in presence of sulfadoxine-pyrimethamine by HPLC method
Homo sapiens [5] = test: Intercompartment clearance in Papua new Guinean women in second or third trimester of pregnancy using pharmacokinetic base model assessed as monodesethychloroquine at 450 mg/day, po administered as three divided doses in presence of sulfadoxine-pyrimethamine by HPLC method
Homo sapiens [6] = test: Intercompartment clearance in Papua new Guinean women in second or third trimester of pregnancy using pharmacokinetic final covariate model assessed as monodesethychloroquine at 450 mg/day, po administered as three divided doses in presence of sulfadoxine-pyrimethamine by HPLC method

CL/F (Homo sapiens [1]): 20 L/h
CL/F (Homo sapiens [2]): 20 L/h
CL/F (Homo sapiens [3]): 9.2 L/h
CL/F (Homo sapiens [4]): 7 L/h
CL/F (Homo sapiens [5]): 3.6 L/h
CL/F (Homo sapiens [6]): 3.6 L/h
Structure (SMILES): CCN(CC)CCCC(C)Nc1ccnc2cc(Cl)ccc12 (stereo unspecified) [CHLOROQUINE]
